Measurements from article doi:10.1101/2025.06.29.662197v2 (biorxiv, 2026).

Amino acid sequences for entries named in this document (tags omitted). Residues count along the entry.
UniProt Q9NZJ5, 536-1116 limits assumed: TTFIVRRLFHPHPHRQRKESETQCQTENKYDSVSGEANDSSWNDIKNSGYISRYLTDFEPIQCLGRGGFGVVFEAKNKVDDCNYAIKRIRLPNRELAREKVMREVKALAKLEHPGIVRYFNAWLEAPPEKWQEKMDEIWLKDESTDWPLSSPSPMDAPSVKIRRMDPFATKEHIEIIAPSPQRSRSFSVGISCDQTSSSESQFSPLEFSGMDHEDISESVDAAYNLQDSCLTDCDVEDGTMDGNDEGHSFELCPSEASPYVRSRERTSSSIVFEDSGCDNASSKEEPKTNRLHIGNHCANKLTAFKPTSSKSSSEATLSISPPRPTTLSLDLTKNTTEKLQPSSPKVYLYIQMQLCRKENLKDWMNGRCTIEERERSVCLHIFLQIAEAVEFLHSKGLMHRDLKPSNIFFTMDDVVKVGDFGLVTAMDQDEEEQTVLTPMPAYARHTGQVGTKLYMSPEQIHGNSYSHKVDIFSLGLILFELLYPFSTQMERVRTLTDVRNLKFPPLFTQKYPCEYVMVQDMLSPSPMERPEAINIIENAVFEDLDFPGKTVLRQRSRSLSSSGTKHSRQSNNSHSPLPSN

Biological target: human PERK (Carna Bioscience # 05-155) (Homo sapiens, UniProt Q9NZJ5)
Test: biochemical

Compound: Cn1cc(-c2ccc3c(c2)CCN3C(=O)Cc2cccc(C(F)(F)F)c2)c2c(N)ncnc21 [GSK2606414]
- IC50: 0.66 nM
